# Ab-14 heavy chain CDR variants: yeast mating affinities

Data: MIT Lincoln Laboratory AlphaSeq set, Li et al. 2023, doi:10.1038/s41467-023-39022-2, as distributed in FLAb.

Antigen: PDVDLGDISGINAS, a 14-residue peptide of the SARS-CoV-2 spike HR2 region.

Parent scFv Ab-14: VH joined to VL by the linker GGGGSGGGGSGGGGS. Changes lie in the heavy chain CDRs alone.
VH: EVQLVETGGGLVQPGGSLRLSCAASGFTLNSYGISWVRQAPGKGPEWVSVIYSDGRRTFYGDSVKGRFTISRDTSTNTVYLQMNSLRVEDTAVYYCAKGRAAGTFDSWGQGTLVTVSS
VL: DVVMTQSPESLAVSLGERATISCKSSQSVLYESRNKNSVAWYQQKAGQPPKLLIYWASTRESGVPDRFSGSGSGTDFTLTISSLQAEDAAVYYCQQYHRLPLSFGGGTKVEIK

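These sequences belong to a second round, designed from the earlier measurements on random variants of the parent. Several design methods are mixed in this list. The scFvs were displayed on barcoded MATa yeast, the peptide on MATalpha yeast. Mating (16 h, 30 °C) was followed by selection of diploids and sequencing of their barcodes. A regression on co-assayed BCL2-family reference pairs converts the normalised counts of each replicate to an apparent Kd. There are six technical replicates.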

Variants are written as CDR1, CDR2 and CDR3 of the heavy chain (limits as in the source). Parent: GFTLNSYGIS, VIYSDGRRTFYGDSVK, GRAAGTFDS.
Values are apparent Kd, the geometric mean of the replicates that gave a signal; lower means stronger binding.
An entry "not detected" has no value in the source: the pair was not observed among the diploids in any replicate. This suggests poor binding but is not conclusive.

apparent Kd,detected,CDR-H1,CDR-H2,CDR-H3
37 nM,5 of 6,KFDLNSYGIS,VIYSDGRRTFYDDSVK,GKAAGTFDS
120 nM,1 of 6,GFTLNSYGIS,VIYSDGRRTFYSDSVK,GRASGTFDS
98 nM,3 of 6,GFTINSYGIS,VIYSDGRRTFYSDSVK,GRAAYTFLS
320 pM,6 of 6,GFDLNEYGIS,VIYADGSRTFYADSVK,GEVAGSFDQ
99 nM,1 of 6,GFTLNDYGIS,VIYSDGQRTFYIDSVK,GRAAGTFIS
not detected,0 of 6,GFSLDEYGIS,VIYADGMRARYSDAVK,GVKVGNVIM
not detected,0 of 6,GFTLNSYGIS,VIYADGRRTYYGDSVK,GRAAGTNKS
530 pM,6 of 6,GFTLDEYGIS,VIYADGRRTFYADSVK,GETAGTFDI
not detected,0 of 6,GFDLKEYGIS,VIYADGMRAGYADNVK,GEWGGKFLV
340 pM,6 of 6,GFQLDEYGIS,VIYADGRRTFYADSVK,GEVAGTFDS
1.9 nM,6 of 6,GFDLNEYGIS,VIYADGMRTAYADDVK,GETAGTFDQ
not detected,0 of 6,GFDLNSYGIS,VIYSDGRRTFYGDSVK,GREAGIFDS
76 nM,1 of 6,GFDLEEWGIS,VIYADGRRTAYADNVK,GMSGADLMF
1.0 nM,6 of 6,GFDLNSYGIS,VIYSDGRRTFYGDSVK,GREAGTFDD
460 pM,6 of 6,GFDLNEYGIS,VIYADGRRTFYADSVK,GENAGTFDI
2.2 nM,5 of 6,GFVLNEYGIS,VIYSDGRRTFYKDSVK,GRAAGTFDS
510 pM,6 of 6,GFDLDEYGIS,VIYADGMRTAYVDDVK,GNVAGTFDV
250 pM,6 of 6,GFDLNEYGIS,VIYADGRRTAYTDSVK,GEIAGTFDS
840 pM,6 of 6,GFELNSYGIS,VIYSDGRRTAYGDSVK,GRTAGTFDS
1.3 nM,6 of 6,GFSLNQYGIS,VIYSDGTRTFYSDSVK,GRAAGTFDS
not detected,0 of 6,RFTINSYGIS,VIYSDGRRTFYGDSVK,GRAQGTFDS
590 pM,6 of 6,GFDLNEYGIS,VIYADGVRTAYADSVK,GKVAGTFDV
not detected,0 of 6,GFTLNDYGIS,VIYSDGRRTFYGDSVK,GRVAGTFIS
not detected,0 of 6,GYDIDEYGIS,VIYADGQRTAYQNAVK,GEQAGIMMY
not detected,0 of 6,GFTLPSYGIS,VIYSDGKRTFYEDDVV,GRAAGTFDS
900 nM,1 of 6,GFTLNEYGIS,VIYSDGRRTFYTDSVK,GRFAGTFTS
220 nM,4 of 6,GFSLNWYGIS,VIYSDGRRTQYIDSVK,GRAAGTFDS
220 nM,1 of 6,GFTLNSYGIS,VIYSDGRRTMYGDSVK,GRLAGNFDS
not detected,0 of 6,GFDLEDYGIS,VIYADGIRMSYAEAVK,GQNSGVIVN
not detected,0 of 6,GFTLSDYGIS,VIYSDGRRTQYIDSVK,GRAAGEFDS
900 pM,6 of 6,GFELNEYGIS,VIYSDGRRTFYGDAVK,GRTAGTFDS
7.7 nM,6 of 6,GFTLESYGIS,VIYSDGRRTFYADDVK,GNAAGTFDS
30 nM,6 of 6,GFSLNSYGIS,VIYSDGRRTFYDDSVK,GQLAGTFDS
not detected,0 of 6,GFDIEEQGIS,VIYADGIRTFYSEKVK,GQNSNGFDM
1.8 nM,5 of 6,GFDLNEYGIS,VIYADGMRTFYADSVK,GHVAGTFVS
not detected,0 of 6,GYTLNSYGIS,VIYSDGRRTFYGDSVK,GRASGTFDS
not detected,0 of 6,GDDLEDYGIS,VIYADGRRTAYQESVK,GLIAGAIDV
1.3 nM,6 of 6,GFTLNEYGIS,VIYSDGRRTFYTDSVK,GLAAGTFDL
52 nM,3 of 6,PFDLNSYGIS,VIYSDGRRTFYVDSVK,GRTAGTFDS
58 nM,3 of 6,GFVLNNYGIS,VIYSDGRRTFYVDSVK,GRTAGTFDS
630 pM,6 of 6,GFNLNEYGIS,VIYADGMRTFYSDSVK,GEQAGTFDV
1.0 nM,6 of 6,PFSLNEYGIS,VIYSDGRRTFYGDSVK,GRTAGTFDS
1.9 nM,6 of 6,GFFLNDYGIS,VIYSDGRRTFYADSVK,GTAAGTFDS
not detected,0 of 6,GMSLDEYGIS,VIYADGRRQAYSDEVK,GEHGWFATI
not detected,0 of 6,GFDLNEYGIS,VIYADGLRKSYANSVK,NGLRSDFFV
2.4 nM,6 of 6,GFTLNSYGIS,VIYSDGLRTFYSDSVK,GNAAGTFDS
2.0 nM,6 of 6,GFDLNEYGIS,VIYADGRRTAYSDSVK,GNQAGTFDM
1.1 nM,6 of 6,GFELNEYGIS,VIYSDGRRTFYDDSVK,GKAAGTFDT
1.1 nM,6 of 6,GFDLNSYGIS,VIYSDGRRTFYLDSVK,GRNAGTFDS
not detected,0 of 6,GFDLNEYGVS,VIYADGQRTQYTDKVK,GSFSAAITN
760 pM,6 of 6,GFDLSEYGIS,VIYADGKRTAYADSVK,GNVAGTFDV
not detected,0 of 6,GFCLNSYGIH,VIYSDGRRTFYGDSVK,GRAAGTFSS
not detected,0 of 6,GFTLNSYGIS,VIYSDGRRTFYGDDVK,GRAAGAFDS

Excerpt, the first 7 entries:

{"CDR-H1": "KFDLNSYGIS", "CDR-H2": "VIYSDGRRTFYDDSVK", "CDR-H3": "GKAAGTFDS", "apparent Kd": "37 nM", "detected": "5 of 6"}
{"CDR-H1": "GFTLNSYGIS", "CDR-H2": "VIYSDGRRTFYSDSVK", "CDR-H3": "GRASGTFDS", "apparent Kd": "120 nM", "detected": "1 of 6"}
{"CDR-H1": "GFTINSYGIS", "CDR-H2": "VIYSDGRRTFYSDSVK", "CDR-H3": "GRAAYTFLS", "apparent Kd": "98 nM", "detected": "3 of 6"}
{"CDR-H1": "GFDLNEYGIS", "CDR-H2": "VIYADGSRTFYADSVK", "CDR-H3": "GEVAGSFDQ", "apparent Kd": "320 pM", "detected": "6 of 6"}
{"CDR-H1": "GFTLNDYGIS", "CDR-H2": "VIYSDGQRTFYIDSVK", "CDR-H3": "GRAAGTFIS", "apparent Kd": "99 nM", "detected": "1 of 6"}
{"CDR-H1": "GFSLDEYGIS", "CDR-H2": "VIYADGMRARYSDAVK", "CDR-H3": "GVKVGNVIM", "apparent Kd": "not detected", "detected": "0 of 6"}
{"CDR-H1": "GFTLNSYGIS", "CDR-H2": "VIYADGRRTYYGDSVK", "CDR-H3": "GRAAGTNKS", "apparent Kd": "not detected", "detected": "0 of 6"}

Empty control strains, which show no peptide, gave a signal in 1% of pairings with all heavy chain designs; the median was 120 nM and 95% of these signals were weaker than 7.0 nM. No background was subtracted.
The authors averaged sequences with at least three values out of six and counted those with two or fewer as poor binders.
Of ten entries with the parent sequence, four were seen in most replicates (averages 2.2 nM to 240 nM), three in one and three in none, so single entries are noisy.
The range of this assay differs from that of the first round, and the authors advise against merging the two.